The target of experiment [1] is human PCSK9 (self-cleaved, mature, secreted PCSK9 comprising amino acids 31 to 692 of SEQ ID NO: 2) (human) (UniProt Q8NBP7). The experiment can be described thus: SPR pH 5.5.
Experiment [2] shares this target. The experiment can be described thus: SPR pH 7.4.
Experiment [3] has the same target. The experiment can be described thus: SPR primary screen pH 7.4.
Experiment [4] has the same target. The experiment can be described thus: SPR second screen pH 7.4.
Experiment [5] addresses cynomolgus PCSK9 (cynomolgus). The experiment can be described thus: SPR second screen pH 7.4.

Several values for one entry are separate records, joined by “and”; a condition that tells them apart may be missing. Identical values can stand only once.

Turning to “8A3 variant HC I107M / LC with S at 57 (parental LC) (antibody)”, in experiment [1], the pH 5.5 estimated complex half life is 450 s and the pH 5.5 estimated half life was 450 s. Also, in experiment [2], the Kd is 0.129 nM and 0.191 nM and 0.152 nM; the koff was 5.27e-05 s⁻¹ and 8.1e-05 s⁻¹ and 6.47e-05 s⁻¹; the on-rate (kon) was 408000 M⁻¹ s⁻¹ and 425000 M⁻¹ s⁻¹ and 426000 M⁻¹ s⁻¹.
In experiment [3], SS-15758 (antibody) registered an equilibrium dissociation constant (Kd) of 0.947 nM, an off-rate constant (koff) of 0.000234 s⁻¹ and a kon of 247000 M⁻¹ s⁻¹. In experiment [4], this substance registered a Kd of 0.704 nM, a koff of 0.000188 s⁻¹ and a kon of 268000 M⁻¹ s⁻¹. In addition, in experiment [5], the dissociation constant Kd was determined as 0.998 nM, the dissociation rate constant (koff) was 0.000497 s⁻¹ and the association rate constant (kon) is 498000 M⁻¹ s⁻¹.

By Kd is commonly meant the constant that tells how readily two partners part at equilibrium. Usually koff stands for the first-order rate constant of dissociation. By kon is commonly meant a measure of how fast the partners come together. A low value points to slower complex formation.

These data come from US20160032014A1.
